# From patent US5658916A, “Drug active on the central nervous system, a process for the preparation thereof and pharmaceutical compositions containing it” (Vita-Invest, S.A., priority 1994, dated 1997)
# Sequences of proteins named here, by UniProt entry; tags and fusion partners are left off.
# UniProt P14842, whole entry: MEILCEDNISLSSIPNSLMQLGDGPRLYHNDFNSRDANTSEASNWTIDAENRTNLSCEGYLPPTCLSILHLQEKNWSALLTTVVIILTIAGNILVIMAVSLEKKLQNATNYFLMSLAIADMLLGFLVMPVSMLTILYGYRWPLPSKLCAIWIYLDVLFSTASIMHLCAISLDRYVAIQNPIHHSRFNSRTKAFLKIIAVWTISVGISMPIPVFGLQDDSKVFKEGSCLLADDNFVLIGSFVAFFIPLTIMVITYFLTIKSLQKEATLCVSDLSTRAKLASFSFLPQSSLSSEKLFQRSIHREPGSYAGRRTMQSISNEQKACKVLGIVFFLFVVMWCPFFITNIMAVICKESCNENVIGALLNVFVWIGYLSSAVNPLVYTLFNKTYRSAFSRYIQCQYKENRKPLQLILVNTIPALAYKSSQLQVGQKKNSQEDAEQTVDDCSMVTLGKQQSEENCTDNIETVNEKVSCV
# Target: 5HT2 receptors (Rattus norvegicus, UniProt P14842)
# Assay: Displacement of 3H-ketanserine binding to 5HT2 receptors (front cortex of rat brain)
structure (smiles),measurement,value
Cc1nc2sccn2c(=O)c1CCN1CCC(=C(c2ccc(F)cc2)c2ccc(F)cc2)CC1 [Ritanserine],Ki,2.6 nM
